# scFv variants of Ab-14 (light chain) against a SARS-CoV-2 spike peptide

Data: MIT Lincoln Laboratory AlphaSeq set, Li et al. 2023, doi:10.1038/s41467-023-39022-2, as distributed in FLAb.

The target is the same throughout: PDVDLGDISGINAS, from the HR2 region of SARS-CoV-2 spike.

Parent scFv Ab-14: VH joined to VL by a (GGGGS)3 linker. Changes lie in the light chain CDRs alone.
VH: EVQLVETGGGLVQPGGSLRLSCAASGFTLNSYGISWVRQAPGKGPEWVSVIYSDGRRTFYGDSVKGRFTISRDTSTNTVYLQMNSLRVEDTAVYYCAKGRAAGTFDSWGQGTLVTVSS
VL: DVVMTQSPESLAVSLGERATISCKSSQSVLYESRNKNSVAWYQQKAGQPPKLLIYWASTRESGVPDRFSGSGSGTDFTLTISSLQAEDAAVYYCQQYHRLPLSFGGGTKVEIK

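The variants were designed computationally from a first round of random CDR variants and then made and measured. Several design methods are mixed in this list. The assay is AlphaSeq: two haploid yeast populations carry antibody and antigen on their surface. Binding brings cells together so that they mate, and sequencing counts the barcode pairs among the diploids. The ratio of observed to expected reads was calibrated, replicate by replicate, on BCL2-family standards whose Kd was known from biolayer interferometry. The assay was run in six technical replicates.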

The parent's light chain CDRs are KSSQSVLYESRNKNSVA, WASTRES, QQYHRLPLS; each variant's own CDRs replace them letter for letter. Scale: log10 of Kd in nM, estimated from mating counts; low values are strong binders. The mean shown is taken over the replicates in which the pair was detected. "no signal" means that the variant was in the library but no mating with the target was seen in any replicate; the authors take this as a sign of poor binding, and no number exists. Nonspecific signal, from three strains lacking the peptide, appeared in 4% of pairings of all light chain designs, centred on 2.64 (5% of these signals below 1.59); values are not corrected for it. For each scFv, signals with the empty controls are counted beside the result.

CDR-L1	CDR-L2	CDR-L3	mean, log10 nM	replicates with signal	control signals
KISFLTNQTFEQSNNVA	EMVTREK	QQYNRLPLS	0.66	6/6	0/18
KLSQSVLGESRNKNSVA	NASTRES	QQYHRLPLS	-0.08	12/12	1/36
KLVQGVLKESRNKNCVA	WASTRES	QQYHRLPLS	no signal	0/6	0/18
HLSWVVLYESRNKNSVA	NASTRES	QQYHRLPLS	0.04	6/6	1/18
KWSQSVDLESRNDNSVA	NASCRED	QQYHRLPLS	0.92	6/6	1/18
KSSISYAYESRNKNSVA	AASTRES	QQYHRLPLS	0.72	6/6	0/18
FFALIQDSMGEAKNSIA	DRNTKAH	QQYSRLPLV	0.76	6/6	2/18
KVSQSWLYEDRVKNSVA	GAQTRES	QQYHRLPLS	0.62	6/6	0/18
ILEENADVITEIGNSIA	ETNMVRS	QQYHRLPLA	2.08	5/6	0/18
KSQQSWLYESRNKNNVA	HASTRED	QQYHRLPLS	-0.13	6/6	0/18
NITESMYYQSRNKNNIA	EMSTRER	QHYHRLPLS	0.13	6/6	0/18
KSSQSVWYESENKNSVA	WASTRES	QQYERSPLS	no signal	0/6	1/18
KLSQSFLYESTNKNSVA	WASTRES	QQKHRLPLS	1.42	6/6	1/18
KLSQSVLYESRNKNSVA	DASTRYS	QQYHRLPLS	-0.19	6/6	1/18
KASQSVLYEFPNKNSVA	HASTRES	QQYHRLPLS	1.10	6/6	1/18
MISQLMNLGQFAINSVA	QASIRNA	QQYDRLPLI	2.25	6/6	0/18
KLSQSVWYLERNKNSVA	NASYRES	QQYHRLPLS	0.28	6/6	1/18
KSSQSVTYESTNKNSVA	WASTRES	QQYHRLPLS	1.23	6/6	0/18
KLRQSTLLESRNKNSVA	WASTRES	QQYHVLPLS	1.79	6/6	1/18
KLSQSVEVLSRNKNSVA	EASTREM	QQYHRLPLS	-0.43	6/6	1/18
KLSQSMLYEQRNKNSVA	NASTRES	QQYHRLPLS	-0.12	6/6	0/18
KLVNFMNRGTHHTSNIA	DAALRED	QQYYRLPLA	0.35	6/6	0/18
KLPQATMQESVSKNSVA	ELTTRGS	QQYHRLPLS	0.69	6/6	0/18
KSSQSVLYESRNVNSVA	HASTRES	QQYHRLPLS	0.52	6/6	2/18
KLMQSELYESRNKNSVA	NASYRES	QQYHRLPLS	-0.33	6/6	0/18
KLSQSVLQQWRNKNSVA	QASHRES	QQYHRLPLS	1.12	6/6	1/18
HSSPSVWYESRNKNSVA	NASTREE	QDYHRLPLS	0.26	6/6	2/18
KQSQSVLYESRNKNSVA	NASTRES	QQYHRLPLS	0.19	6/6	0/18
KLSKMVMYESRNKNSVA	SASTREE	QQYHRLPLS	0.52	6/6	0/18
IVSQLMLWGYHAKNSIA	EAQMRMN	QQYDRLPLF	2.39	1/6	0/18
MISDLTMYGSRNLNSVA	DLSTRGS	QQYHRLPLS	-0.18	6/6	1/18
KFSQSVLYEMRNKQSVA	AASTRES	QQYHRLPLS	0.24	6/6	0/18
HMSMLTLGGLRNRNSVA	QMTTREN	QQYDRLPLI	0.77	6/6	2/18
KLPQSVLYESRNKNSVA	NASTRES	QDYHRLPLS	0.02	6/6	0/18
KSSQSVLYESRNKNSVA	WKSTRES	QQYHRLPLS	no signal	0/6	0/18
KSSHSDLYEFRNKNSVA	WASTHEQ	QQYNRLPLS	no signal	0/6	0/18
KLTHLSFVHDRQKASVA	DSERKAE	QQYNRLPLT	0.32	6/6	2/18
KMSQSVDVLSRNKNSVA	NASTREM	QQYHRLPLS	-0.08	6/6	0/18
KSSQSVYYESRNKNSVA	WAVRRES	QQYHHLPLS	no signal	0/6	0/18
KLSQSVHYESRNKNNVA	NASTRES	QQYHRLPLS	0.14	6/6	0/18
QLSMLTGHVSMSKNNVA	EMETRCN	QQYDRLPLS	0.73	6/6	0/18
FMQMQNDRMTDAAKNIA	DVDMRET	QQYARLPFM	1.15	6/6	0/18
KLNSDSVLQWNINNSVA	EMSEVIQ	QQYVHLPLM	1.54	3/6	0/18
KVSWSVLFESRNKNSVA	DASTRES	QQYHRLPLS	0.01	6/6	0/18
MFPQEVMYEQHFKNNVA	QTSTREP	QQYDMLPLS	0.84	6/6	1/18
NVGQLMDGEMRNKNSVA	HQSTRED	QHYHRLPLS	0.19	6/6	0/18
IVSQLMLWGLHAKNSIA	EAVTRLN	QQYDRLPLF	2.39	1/6	1/18
IISQSVMFQQTLINSVA	NAQTRES	QQYHRLPLS	0.47	6/6	0/18
YMSGQISGDWNQQEAIA	EVTYKEH	QQYYQLPLS	no signal	0/6	0/18
KLRQSTLYESRNKNSYA	WASTRES	QQYHRLALS	no signal	0/6	0/18
KLSQSFLYESRNKMSVA	NADTREE	QQYHRLPLS	-0.02	6/6	1/18
KLQWSHLYGSRNKNSVA	HASQRES	QCYHRLPLS	1.31	6/6	0/18
MIFYGQERDIAHESSIA	NDMARVK	QQYYRLPLS	2.02	6/6	0/18
KLYQSVLYESRNKNAVA	NASQRES	QQYHRLPLS	-0.24	6/6	1/18
ALRGVGYDEQVKHSAIA	DAEHVNQ	QQYSMLPLS	0.53	6/6	0/18
KLQTDYSIAQKRWSNVA	NADQRES	QQYFRLPIV	0.31	6/6	4/18
KSSPSVLYESINKNSVA	NASTRMS	QQYHRLPLS	0.11	6/6	2/18
MISQLYNMGQFAINSVA	QASERNE	QQYDRLPLM	2.40	2/6	1/18
KLQGAELGESRNKNSVA	SADTRES	QQYHRLPLS	0.10	6/6	0/18
KFEGSEGMESRNKNSVA	EASHRMS	QQYHRLPLS	-0.02	6/6	0/18
KSSQSAAYESRNKNSVA	GASTRES	QQYHRLPLS	0.17	6/6	0/18
KLSQSQLYESRNKNSVA	EASTREV	QQYHRLPLS	-0.13	6/6	1/18
IVSQLMLWGMHRKNSIA	EAQTRIN	QQYDRLPLM	2.71	5/6	1/18
NIDQQRSYQDGRERAIA	DASIRQD	QYYNRLPLV	1.22	6/6	2/18
KVSQSNGYESRMKNSVA	NASQRES	QQYHRLPLS	0.09	6/6	5/18
IVSQLMLWGWMAKNSIA	EAVTRLN	QQYDRLPLF	no signal	0/6	0/18
KSSQSVLYESRNKNSVA	NASTRET	QQYHRLPLS	0.63	6/6	0/18
KTSQSVLYESRNKNSVA	WASTRES	QQYHRLPLS	1.53	6/6	5/18
HMLYQFNTGSLRVNNVA	EGETVLD	QQYFRLPIT	0.96	4/6	0/18
KSSQSVLYGSRNANSVA	WASTRES	QQYHRLPLS	2.17	3/6	0/18

Excerpt, the final 6 entries:

| CDR-L1 | CDR-L2 | CDR-L3 | mean, log10 nM | replicates with signal | control signals |
|---|---|---|---|---|---|
| KVSQSNGYESRMKNSVA | NASQRES | QQYHRLPLS | 0.09 | 6/6 | 5/18 |
| IVSQLMLWGWMAKNSIA | EAVTRLN | QQYDRLPLF | no signal | 0/6 | 0/18 |
| KSSQSVLYESRNKNSVA | NASTRET | QQYHRLPLS | 0.63 | 6/6 | 0/18 |
| KTSQSVLYESRNKNSVA | WASTRES | QQYHRLPLS | 1.53 | 6/6 | 5/18 |
| HMLYQFNTGSLRVNNVA | EGETVLD | QQYFRLPIT | 0.96 | 4/6 | 0/18 |
| KSSQSVLYGSRNANSVA | WASTRES | QQYHRLPLS | 2.17 | 3/6 | 0/18 |

The authors averaged sequences with at least three values out of six and counted those with two or fewer as poor binders. The parent sequence was in this pool as ten entries: three were never detected, three once, and four in most replicates, with averages from 0.34 to 2.37. Some sequences occur more than once in the pool; their replicates are pooled. Values of this round are not directly comparable with the first-round values of the same sequences.